Earlier results, collected in patent US8865021B2, “Compositions of lipids and cationic peptides” (Camurus AB, priority 2003, dated 2014).

B1: IL-3 (protein, UniProt P08700 20-152, looked up)
Interleukin-3: APMTQTTPLKTSWVNCSNMIDEIITHLKQPPLPLLDFNNLNGEDQDILMENNLRRPNLEAFNRAVKSLQNASAIESILKNLLPCLPLATAAPTRHPIHIKDGDWNEFRRKLTFYLKTLENAQAQQTTLSLAIF
notes: Haematopoietic growth factor
B2: IL-20 (protein, UniProt Q9NYY1 25-176, looked up)
Interleukin-20: LKTLNLGSCVIATNLQEIRNGFSEIRGSVQAKDGNIDIRILRRTESLQDTKPANRCCLLRHLLRLYLDRVFKNYQTPDHYTLRKISSLANSFLTIKKDLRLCHAHMTCHCGEEAMKKYSQILSHFEKLEPQAAVVKALGELDILLQWMEETE
notes: Four alpha helix cytokine ZCYTO10

Settings: Table 2

Row | Molecule | Isoelectric pH [pH]
1 | Follitropin-alpha | 8.38
2 | IL-2 | 7.05
3 | Interferon-alpha 2 | 5.99
4 | Interferon-beta | 8.93
5 | Thyrotropin alpha | 8.38
6 | B1 | 6.97
7 | B2 | 8.77
